Assay results published in patent US4051241A.

Experiments:
[1] = Metabolic effects: loss of urinary nitrogen and calcium; conditions: Table IVA, daily oral, 20 mg printed in table (40 mg in text), subjects 1, 2; listed as 11β,17α,21-trihydroxypregna-1,4-diene-3,20-dione
[2] = system: HPA axis; conditions: 25.0 mg per day, oral, 6 A.M., 7 days
[3] = system: HPA axis; conditions: 25.0 mg per day, oral, 6 A.M., 7 days; remark: listed apart in the source
[4] = listed as 11β,17α21-trihydroxypregna-1,4-diene-3,20-dione

C[C@]12C=CC(=O)C=C1CC[C@@H]1[C@@H]2[C@@H](O)C[C@@]2(C)[C@H]1CC[C@]2(O)C(=O)CO [Prednisolone]
Mean Urinary Calcium, Treatment Period Days 10-15 [1]: 273 milligrams per 24 hours and 274 milligrams per 24 hours
Mean Urinary Nitrogen, Treatment Period Days 10-15 [1]: 9.6 grams per 24 hours and 9.4 grams per 24 hours
Normal/Total A.M. Plasma Cortisol [2, 4]: 0/3
Normal/Total A.M. Plasma Cortisol ([2]; listed as 11β,17α,21-trihydroxypregna-1,4-diene-3,20-dione): none
Normal/Total IHT Response [3, 4]: 2/3
Normal/Total IHT Response ([3]; listed as 11β,17α,21-trihydroxy-1,4-pregnadine-3,20-dione): only two

Values joined by “and” are separate entries in the source; they are usually repeats but may differ in a detail not shown here. Equal values may be shown once. Read-outs that look alike come from different tables or passages of the source.
